The text below walks through data of ChEMBL document CHEMBL3244325, “Diastereoisomeric N-tetrahydrofurfurylnoroxymorphones with opioid agonist--antagonist properties” (J Med Chem, 1977).

For experiment [1], the species on record is Cavia porcellus. Kind of experiment: Agonist activity at opioid receptor in myenteric plexus of guinea pig ileum relative to morphine. The experiment is classed as tissue-based.
The species entered for experiment [2] is Cavia porcellus. Kind of experiment: Antagonist activity at opioid receptor in myenteric plexus of guinea pig ileum relative to nalorphine. The experiment is classed as tissue-based.

As for `CC(C)=CCN1CCC2(C)c3cc(O)ccc3CC1C2C.Cl` (configuration not stated) [PENTAZOCINE HYDROCHLORIDE], the Ratio is 0.27 in experiment [1] and 0.3 in experiment [2].
